Binding of CDR-mutated scFvs to a peptide of the spike HR2 region

Binding partner: SARS-CoV-2 spike HR2 peptide, sequence PDVDLGDISGINAS.

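The starting antibody came from a phage panning campaign against this peptide. The library (AAYL50) carries one to three amino acid substitutions per variant, with no insertions or deletions. The assay is AlphaSeq: two haploid yeast populations carry antibody and antigen on their surface. Mating (16 h, 30 °C) was followed by selection of diploids and sequencing of their barcodes. Scores were corrected for input abundance and mapped to Kd with protein pairs of known affinity run in the same pool. There are three technical replicates.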

Each scFv is VH, the linker GGGGSGGGGSGGGGS, VL, as in the parent Ab-14, and differs from it in the CDRs of the light chain only.
VH: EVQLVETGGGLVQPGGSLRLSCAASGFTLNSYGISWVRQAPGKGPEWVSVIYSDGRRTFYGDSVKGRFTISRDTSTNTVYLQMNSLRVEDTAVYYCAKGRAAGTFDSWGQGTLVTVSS
VL: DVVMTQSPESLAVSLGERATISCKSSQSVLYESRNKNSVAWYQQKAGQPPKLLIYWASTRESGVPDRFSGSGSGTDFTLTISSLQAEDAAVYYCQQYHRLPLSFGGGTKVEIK

The parent's light chain CDRs are KSSQSVLYESRNKNSVA, WASTRES, QQYHRLPLS; each variant's own CDRs replace them letter for letter.
Numbers give log10(Kd / nM), so 0 is 1 nM and 3 is 1 µM. Smaller is tighter.
Where no diploid with the target was found in that replicate, the entry reads "ND": below detection, most likely a poor binder, though not proof of it.
Three control strains display no target. For library AAYL50, 18% of the pairings with them gave a signal, with a median of 4.19 and one signal in twenty below 2.99, so weak values seen in few replicates may be background. For each scFv, signals with the empty controls are counted beside the result, with their mean in brackets.

{"CDR-L1": "KSSQSVLYESRNKNSPA", "CDR-L2": "WASTRES", "CDR-L3": "QQWHDLPLS", "replicates, log10 nM": "ND / ND / ND", "control signals": "0/9"}
{"CDR-L1": "HNSQSVLYESRNKNSVA", "CDR-L2": "WYSTRES", "CDR-L3": "QQYHRLPLS", "replicates, log10 nM": "ND / ND / 3.61", "control signals": "0/9"}
{"CDR-L1": "KSSQSVLCESRNKNSVA", "CDR-L2": "WASMREF", "CDR-L3": "QQYHRLPLS", "replicates, log10 nM": "ND / ND / ND", "control signals": "0/9"}
{"CDR-L1": "KSSESVLRESRNKNSVA", "CDR-L2": "WASTRES", "CDR-L3": "QQYHRLPFS", "replicates, log10 nM": "1.59 / 1.59 / ND", "control signals": "0/9"}
{"CDR-L1": "KSSQSWLYEWRNKNSVA", "CDR-L2": "WNSTRES", "CDR-L3": "QQYHRLPLS", "replicates, log10 nM": "ND / ND / ND", "control signals": "1/9 (4.33)"}
{"CDR-L1": "KSSQSVLYESGNKNSVA", "CDR-L2": "MASTRKS", "CDR-L3": "QQYHRLPLS", "replicates, log10 nM": "0.97 / 1.18 / 1.07", "control signals": "4/9 (4.07)"}
{"CDR-L1": "KDSQSVLYESRNMESVA", "CDR-L2": "WASTRES", "CDR-L3": "QQYHRLPLS", "replicates, log10 nM": "2.26 / 2.17 / 2.47", "control signals": "2/9 (4.15)"}
{"CDR-L1": "KSSKSVWYESRPKNSVA", "CDR-L2": "WASTRES", "CDR-L3": "QQYHRLPLS", "replicates, log10 nM": "1.54 / 1.36 / 1.66", "control signals": "3/9 (5.21)"}
{"CDR-L1": "KSSYMVLWESRNKNSVA", "CDR-L2": "WASTRES", "CDR-L3": "QQYHRLPLS", "replicates, log10 nM": "2.78 / ND / ND", "control signals": "1/9 (2.47)"}
{"CDR-L1": "KSSQSVLYESRNKNSQA", "CDR-L2": "WASTRES", "CDR-L3": "QGYHRLPLS", "replicates, log10 nM": "ND / ND / ND", "control signals": "1/9 (2.60)"}
{"CDR-L1": "KSSQRVLCESRNKNSVA", "CDR-L2": "WASTRES", "CDR-L3": "DQYHRLPLS", "replicates, log10 nM": "ND / 2.33 / ND", "control signals": "0/9"}
{"CDR-L1": "KSSQELLYESRNKNSVA", "CDR-L2": "WASTREE", "CDR-L3": "QQYHRLPLS", "replicates, log10 nM": "0.08 / 0.36 / 0.18", "control signals": "2/9 (4.72)"}
{"CDR-L1": "KSIQSVLYESRCKNSVA", "CDR-L2": "WASTRES", "CDR-L3": "QQYHRCPLS", "replicates, log10 nM": "ND / 3.58 / ND", "control signals": "0/9"}
{"CDR-L1": "KSSQSVLYESRNKNSVA", "CDR-L2": "WASTEES", "CDR-L3": "QQEHRLPLS", "replicates, log10 nM": "ND / ND / ND", "control signals": "1/9 (4.26)"}
{"CDR-L1": "KSSQSVLYESRNQNSVA", "CDR-L2": "WASTREK", "CDR-L3": "QQYHRLNLS", "replicates, log10 nM": "0.64 / 0.80 / 0.91", "control signals": "2/9 (4.24)"}
{"CDR-L1": "KSSQSVLYESRNKNSVA", "CDR-L2": "WASTRKS", "CDR-L3": "MQYTRLPLS", "replicates, log10 nM": "ND / ND / ND", "control signals": "1/9 (4.08)"}
{"CDR-L1": "LISQSKLYESRNKNSVA", "CDR-L2": "WASTRES", "CDR-L3": "QQYHRLPLS", "replicates, log10 nM": "0.70 / 0.84 / 0.89", "control signals": "1/9 (3.24)"}
{"CDR-L1": "KSSQSVLYESRNKNSVA", "CDR-L2": "WASTRES", "CDR-L3": "QQYHRIPLS", "replicates, log10 nM": "1.68 / 1.69 / 1.96", "control signals": "3/9 (3.82)"}
{"CDR-L1": "KSSQSVLYESRNKASVA", "CDR-L2": "WASTRES", "CDR-L3": "QQYHRTPLS", "replicates, log10 nM": "2.18 / 2.20 / 1.97", "control signals": "0/9"}
{"CDR-L1": "KSSQSVLYVSRNKNSVA", "CDR-L2": "WTSTRES", "CDR-L3": "QQYHRAPLS", "replicates, log10 nM": "3.48 / 2.85 / 3.71", "control signals": "1/9 (4.06)"}
{"CDR-L1": "KSSQSVLYESRNKNSVA", "CDR-L2": "WAWTFTS", "CDR-L3": "QQYHRLPLS", "replicates, log10 nM": "ND / ND / 4.05", "control signals": "2/9 (3.06)"}
{"CDR-L1": "KSCQSVLYESRNRDSVA", "CDR-L2": "WASTRES", "CDR-L3": "QQYHRLPLS", "replicates, log10 nM": "2.19 / 1.67 / ND", "control signals": "0/9"}
{"CDR-L1": "RSSQSVSYFSRNKNSVA", "CDR-L2": "WASTRES", "CDR-L3": "QQYHRLPLS", "replicates, log10 nM": "1.79 / 2.23 / 1.54", "control signals": "6/9 (2.82)"}
{"CDR-L1": "KSSQSFLHESRNKNSVA", "CDR-L2": "WASTRES", "CDR-L3": "QQYHRLVLS", "replicates, log10 nM": "ND / 4.85 / ND", "control signals": "1/9 (4.75)"}
{"CDR-L1": "KSSQSNLYESRNKNSVA", "CDR-L2": "WASYRCS", "CDR-L3": "QQYHRLPLS", "replicates, log10 nM": "1.94 / 1.73 / 1.88", "control signals": "2/9 (4.03)"}
{"CDR-L1": "KSSHSVMYESRNKNSVA", "CDR-L2": "WASTRES", "CDR-L3": "QQYHRLPLS", "replicates, log10 nM": "2.78 / 2.97 / 2.19", "control signals": "0/9"}

For reference, 4 entries of the list once more:

{"CDR-L1": "KSSQSVLYESRNKNSPA", "CDR-L2": "WASTRES", "CDR-L3": "QQWHDLPLS", "replicates, log10 nM": "ND / ND / ND", "control signals": "0/9"}
{"CDR-L1": "KSIQSVLYESRCKNSVA", "CDR-L2": "WASTRES", "CDR-L3": "QQYHRCPLS", "replicates, log10 nM": "ND / 3.58 / ND", "control signals": "0/9"}
{"CDR-L1": "KSSQSVLYESRNKASVA", "CDR-L2": "WASTRES", "CDR-L3": "QQYHRTPLS", "replicates, log10 nM": "2.18 / 2.20 / 1.97", "control signals": "0/9"}
{"CDR-L1": "KSSQSVLYESRNKNSVA", "CDR-L2": "WASTRES", "CDR-L3": "QQYHRIPLS", "replicates, log10 nM": "1.68 / 1.69 / 1.96", "control signals": "3/9 (3.82)"}

In this assay the parent's reference entry averaged 0.65; its copy inside this library read 1.68.

From the AlphaSeq antibody data of Engelhart et al. 2022 (doi:10.1038/s41597-022-01779-4), copy in the FLAb collection.